This is a selection; strong and weak results do not stand in their true shares. The source made the active and inactive calls. Rule as the data show it: active = inhibition above about 40%; inactive = the rest.

The chains behind the UniProt entries cited, without tags or fusion partners.
UniProt P08183, whole entry: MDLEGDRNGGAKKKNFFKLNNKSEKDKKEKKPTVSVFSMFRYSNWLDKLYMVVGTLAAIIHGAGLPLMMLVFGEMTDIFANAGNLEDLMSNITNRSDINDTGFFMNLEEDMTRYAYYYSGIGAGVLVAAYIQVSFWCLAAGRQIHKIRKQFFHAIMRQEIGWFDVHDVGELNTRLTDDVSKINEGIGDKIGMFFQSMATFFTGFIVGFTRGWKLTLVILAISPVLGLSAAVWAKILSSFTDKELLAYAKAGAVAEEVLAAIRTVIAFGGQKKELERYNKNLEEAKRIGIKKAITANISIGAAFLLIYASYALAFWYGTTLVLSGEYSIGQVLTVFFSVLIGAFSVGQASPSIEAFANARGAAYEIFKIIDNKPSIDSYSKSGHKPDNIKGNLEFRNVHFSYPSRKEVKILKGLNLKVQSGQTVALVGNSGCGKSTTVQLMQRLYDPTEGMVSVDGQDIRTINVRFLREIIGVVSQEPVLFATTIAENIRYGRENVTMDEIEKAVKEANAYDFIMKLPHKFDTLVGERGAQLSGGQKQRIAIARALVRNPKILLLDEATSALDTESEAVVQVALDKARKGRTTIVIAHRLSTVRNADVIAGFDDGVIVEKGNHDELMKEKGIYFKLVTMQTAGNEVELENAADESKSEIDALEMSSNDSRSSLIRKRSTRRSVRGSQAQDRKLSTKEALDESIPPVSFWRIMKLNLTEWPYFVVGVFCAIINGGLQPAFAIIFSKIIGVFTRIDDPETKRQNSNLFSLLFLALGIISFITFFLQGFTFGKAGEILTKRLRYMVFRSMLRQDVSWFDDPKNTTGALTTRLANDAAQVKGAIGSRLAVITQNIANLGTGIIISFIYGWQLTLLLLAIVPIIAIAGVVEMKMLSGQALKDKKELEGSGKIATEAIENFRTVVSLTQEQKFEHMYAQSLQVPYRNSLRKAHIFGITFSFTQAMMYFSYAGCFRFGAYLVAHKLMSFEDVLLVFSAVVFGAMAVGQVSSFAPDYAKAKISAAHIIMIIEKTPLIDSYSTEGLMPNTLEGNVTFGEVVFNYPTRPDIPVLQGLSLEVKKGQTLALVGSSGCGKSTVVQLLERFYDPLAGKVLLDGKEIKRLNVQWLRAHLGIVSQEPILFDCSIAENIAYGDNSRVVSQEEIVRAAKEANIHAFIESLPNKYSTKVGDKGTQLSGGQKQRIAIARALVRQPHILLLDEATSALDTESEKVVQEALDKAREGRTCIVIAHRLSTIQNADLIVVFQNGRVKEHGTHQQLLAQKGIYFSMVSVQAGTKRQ

The target of this experiment is ATP-dependent translocase ABCB1 (Homo sapiens) (UniProt P08183). Put plainly: ABCB1 efflux pump inhibitors, primary screen, cell-based, multiplex, flow cytometry, ABCG2 counter-screen (AID 1326).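 Also: 0% = vehicle and 100% = reference inhibitor; higher value means more JC-1 retained so stronger ABCB1 efflux block.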 The settings on record: CCRF-Adr cells, JC-1 efflux, at 6.6 µM, stronger effect = higher value. Background: A flow cytometer gives signals particle by particle.
By inhibition is commonly meant the relative decrease from the control value, in per cent. As to `COc1ccc(NC2CCN(CCc3ccccc3)CC2)c(OC)c1`, the inhibition was inactive: 1.86%.

Take `COc1ccc(C(=O)NCC2(N3CCCCC3)CCCCC2)c(OC)c1OC`: the inhibition is inactive: 0.02%.

On to `CCOC(=O)N1CCC(Nc2ccc(OC)cc2)CC1`, for which the inhibition is inactive: 0.95%.

Take `O=C(OC1CN2CCC1CC2)C1c2ccccc2Oc2ccccc21` (stereo not given): the inhibition is inactive: 0.33%.

As for `O=C(NCC1(N2CCOCC2)CCCCC1)c1cc2ccccc2o1`, the inhibition was inactive: 0.1%.

In the case of `COc1ccc(CN(CCCl)CCCl)cc1Cl`, the inhibition was inactive: 0.59%.

Consider `CN(C)c1cccc(C(=O)NCC2(N3CCCCC3)CCCCC2)c1`, for which the inhibition was inactive: -0.4%.

On to `CC(C)c1ccc(NC2CCN(C(=O)OC(C)(C)C)CC2)cc1`, for which the inhibition was inactive: 0.06%.

`O=C(NCC1(N2CCCCC2)CCCCC1)c1cccc([N+](=O)[O-])c1`: the inhibition is inactive: 0.4%.

With `N#CC1(Nc2ccccc2)CCN(CCc2ccccc2)CC1`, the inhibition is inactive: 0.53%.

`COc1ccc(NC2CCN(C(=O)OC(C)(C)C)CC2)cc1`: the inhibition is inactive: 0.74%.

As to `CN1CCN(CCOC(=O)C(O)(c2ccccc2)c2ccccc2)CC1`, the inhibition is inactive: 1%.

`O=C(NCC1(N2CCOCC2)CCCCC1)c1cc(=O)[nH]c2ccccc12`: the inhibition was inactive: -0.4%.

`N#Cc1ccc(C(=O)NCC2(N3CCCCC3)CCCCC2)cc1`: the inhibition is inactive: -0.36%.

As for `c1ccc(CN2CCC(Nc3ccccc3)CC2)cc1`, the inhibition is inactive: 0.21%.

On to `COc1ccc(C(=O)NCC2(N3CCOCC3)CCCCC2)cc1OC`, for which the inhibition was inactive: 0.67%.

With `O=C(OC1CN2CCC1CC2)C1c2ccccc2C=Cc2ccccc21` (stereo not given), the inhibition was inactive: 0.81%.

Consider `N/C(=N\O)c1c(N)no[n+]1[O-]`, for which the inhibition was inactive: 0.35%.

Consider `CC(C)(C)OC(=O)N1CCC(Nc2ccccc2)CC1`, for which the inhibition was inactive: 0.33%.

In the case of `CCOc1ncccc1C(=O)NCC1(N2CCOCC2)CCCCC1`, the inhibition is inactive: -0.06%.

In the case of `CCC(CO)(C(=O)OC1CN2CCC1CC2)c1ccccc1` (stereo not given), the inhibition is inactive: 0.58%.

For the molecule `COc1cc(OC)cc(C(=O)NCC2(N3CCOCC3)CCCCC2)c1`, the inhibition was inactive: 0.09%.

Regarding `Fc1ccccc1NC1CCN(Cc2ccccc2)CC1`, the inhibition is inactive: 1.78%.

Take `CN(C)c1ccc(C(=O)NCC2(N3CCCCC3)CCCCC2)cc1`: the inhibition was inactive: 0.22%.

For `CCN1CCC(Nc2cccc(F)c2)CC1`, the inhibition is inactive: 0.49%.

(Values after PubChem BioAssay AID1326 (NMMLSC, 2008).)
